Results taken from publication PMC7251097, “Aspartate/asparagine-β-hydroxylase: a high-throughput mass spectrometric assay for discovery of small molecule inhibitors” (Scientific Reports, 2020).

Biological target: T1, His6-AspH315–758 (human aspartate/asparagine-β-hydroxylase, AspH) (Homo sapiens, UniProt Q12797)
T1 construct: N-Terminally His6-tagged human AspH315–758 (His6-AspH315–758) was produced in E. coli BL21 (DE3) cells; made in house; host or cells: E. coli BL21 (DE3), pET-28a(+) vector
T1 sequence (Q12797 315-758): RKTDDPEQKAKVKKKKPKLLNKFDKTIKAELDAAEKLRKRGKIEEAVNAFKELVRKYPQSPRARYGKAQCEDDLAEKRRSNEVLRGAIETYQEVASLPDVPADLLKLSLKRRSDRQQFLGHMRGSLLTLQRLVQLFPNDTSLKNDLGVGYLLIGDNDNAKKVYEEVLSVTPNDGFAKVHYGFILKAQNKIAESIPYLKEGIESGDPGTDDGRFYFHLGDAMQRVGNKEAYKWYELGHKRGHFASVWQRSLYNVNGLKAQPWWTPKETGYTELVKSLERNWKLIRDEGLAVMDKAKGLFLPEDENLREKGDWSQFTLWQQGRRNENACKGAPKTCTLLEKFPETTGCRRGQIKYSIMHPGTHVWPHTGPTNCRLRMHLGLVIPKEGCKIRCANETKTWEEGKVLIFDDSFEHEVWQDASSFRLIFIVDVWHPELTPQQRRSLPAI
Assay: SPE-MS AspH inhibition assay (LOPAC screen at fixed 20 μM and IC50 dose-response), hydroxylation of cyclic peptide hFX-CP101–119
Type: biochemical

Row | Compound | IC50 [μM] (pH 7.5) | Plate 5 (% conversion) [%]
1 | C[N+](C)(C)NCCC(=O)[O-] [Meldonium, meldonium, reference compound] | inactive | –
2 | CP-335963 | – | 39.30
